Laboratory results as given in patent US5908828A, “Synthetic peptide derivatives and the salts thereof” (Hoechst Japan Limited, priority 1994, dated 1999).

Tested on: ALPase activity in MC3T3-E1 cells promoted by rh-BMP-2
Experiment: Assay of BMP inhibiting activity (BMP-2 antagonist-like activity): ALPase activity in cultured MC3T3-E1 cells
Assay type: cell-based, mouse
Protocol: BMP-2 antagonist-like activity of the present synthetic peptide derivatives was assayed by way of cultured MC3T3-E1 cells which were established from mouse calvaria having osteoblast-like property, by Kodama et al. (Kodama, H. et al. (1981) Jpn. J Oral. Biol., vol.23, p.899). The cultured MC3T3-E1 cells were prepared according to Takuwa et al. (Takuwa, Y. et al., (1991) Biochem.
Biophys. Res. Comuni., vol. 174, p.96-101), 5×10^4 cells/cm^2of the cultured cells in serum-free α-MEM culture broth containing serum albumin were treated with various concentrations of synthetic peptide derivatives of this invention and recombinant human BMP-2 (rh-BMP-2) for 2 days so as to assay alkaline phosphatase (ALPase) activity in the cells by colorimetry on p-nitrophenyl phosphate. ALPase is often used as an indicator enzyme for differentiation and maturity of osteoblasts and chondrocytes (Pfeilschifter, J., et al., Endocrinology (1987), vol. 121, p212-218; Rodan, G. A., et al., calcium regulating hormones and bone metabolism, Elsevir Science Publishers B.V., (1992), p 183-196). […]

## rh-BMP-2: recombinant human bone morphogenetic protein 2, used as the stimulus of ALPase activity
rh-BMP-2 5 ng/ml
  increase of ALPase activity in MC3T3-E1 cells in comparison with a control group: 3 folds
rh-BMP-2 5 ng/ml alone, MC3T3-E1 cells, 2 days, mean ± SD, n = 4
  ALPase activity: 892 ± 52 pmol/min
